# Source: publication PMC12207880 (The Oncologist, 2025)
# Read-outs that look alike come from different tables or passages of the source.
# System: patients with advanced solid tumors
smiles,measurement,setting,value
Cc1nc2c(F)cc(-c3nc(Nc4ccc5c(n4)CCN(CCN(C)C)C5)ncc3F)cc2n1C1CC1,"Electrocardiogram QT prolonged, Grade ≥3","600 mg QD, N = 7",0 n (%)
same,"Fatigue, Grade All","600 mg QD, N = 7",2 (28.6) n (%)
same,"Fatigue, Grade ≥3","600 mg QD, N = 7",0 n (%)
same,"Haematuria, Grade All","600 mg QD, N = 7",0 n (%)
same,"Haematuria, Grade ≥ 3","600 mg QD, N = 7",0 n (%)
same,"Hypoalbuminemia, Grade All","600 mg QD, N = 7",1 (14.3) n (%)
same,"Hypoalbuminemia, Grade ≥3","600 mg QD, N = 7",0 n (%)
same,"Hypokalaemia, Grade All","600 mg QD, N = 7",3 (42.9) n (%)
same,"Hypokalaemia, Grade ≥3","600 mg QD, N = 7",0 n (%)
same,"Hyponatraemia, Grade All","600 mg QD, N = 7",2 (28.6) n (%)
same,"Hyponatraemia, Grade ≥3","600 mg QD, N = 7",0 n (%)
same,"Leucocyte count decreased, Grade All","600 mg QD, N = 7",6 (85.7) n (%)
same,"Leucocyte count decreased, Grade ≥3","600 mg QD, N = 7",2 (28.6) n (%)
same,"Lymphocyte count decreased, Grade All","600 mg QD, N = 7",2 (28.6) n (%)
same,"Lymphocyte count decreased, Grade ≥3","600 mg QD, N = 7",1 (14.3) n (%)
same,"Nausea, Grade All","600 mg QD, N = 7",3 (42.9) n (%)
same,"Nausea, Grade ≥3","600 mg QD, N = 7",0 n (%)
same,"Neutrophil count decreased, Grade All","600 mg QD, N = 7",6 (85.7) n (%)
same,"Neutrophil count decreased, Grade ≥3","600 mg QD, N = 7",1 (14.3) n (%)
same,"Platelet count decreased, Grade All","600 mg QD, N = 7",0 n (%)
same,"Platelet count decreased, Grade ≥3","600 mg QD, N = 7",0 n (%)
same,"Rash, Grade All","600 mg QD, N = 7",1 (14.3) n (%)
same,"Rash, Grade ≥3","600 mg QD, N = 7",0 n (%)
same,"Vomiting, Grade All","600 mg QD, N = 7",6 (85.7) n (%)
same,"Vomiting, Grade ≥3","600 mg QD, N = 7",0 n (%)
same,"γ-glutamyl transpeptidase increased, Grade All","600 mg QD, N = 7",2 (28.6) n (%)
same,"γ-glutamyl transpeptidase increased, Grade ≥3","600 mg QD, N = 7",1 (14.3) n (%)
same,patients with SAE related to the study treatment (grade 3 increased GGT),600-mg cohort,1 patients
same,"Abdominal pain, Grade All","All, N = 29",9 (31.0) n (%)
same,"Abdominal pain, Grade ≥3","All, N = 29",0 n (%)
same,"Alanine aminotransferase increased, Grade All","All, N = 29",4 (13.8) n (%)
same,"Alanine aminotransferase increased, Grade ≥3","All, N = 29",1 (3.4) n (%)
same,"Alkaline phosphatase increased, Grade All","All, N = 29",4 (13.8) n (%)
same,"Alkaline phosphatase increased, Grade ≥3","All, N = 29",0 n (%)
same,"All TRAEs, Grade All","All, N = 29",29 (100) n (%)
same,"All TRAEs, Grade ≥3","All, N = 29",15 (51.7) n (%)
same,"Anaemia, Grade All","All, N = 29",19 (65.5) n (%)
same,"Anaemia, Grade ≥3","All, N = 29",1 (3.4) n (%)
same,"Appetite decreased, Grade All","All, N = 29",4 (13.8) n (%)
same,"Appetite decreased, Grade ≥3","All, N = 29",0 n (%)
same,"Aspartate aminotransferase increased, Grade All","All, N = 29",6 (20.7) n (%)
same,"Aspartate aminotransferase increased, Grade ≥3","All, N = 29",0 n (%)
same,"Blood creatinine increased, Grade All","All, N = 29",3 (10.3) n (%)
same,"Blood creatinine increased, Grade ≥3","All, N = 29",0 n (%)
same,"Blood lactic dehydrogenase increased, Grade All","All, N = 29",3 (10.3) n (%)
same,"Blood lactic dehydrogenase increased, Grade ≥3","All, N = 29",0 n (%)
same,"Diarrhoea, Grade All","All, N = 29",20 (69.0) n (%)
same,"Diarrhoea, Grade ≥3","All, N = 29",2 (6.9) n (%)
same,"Dizziness, Grade All","All, N = 29",4 (13.8) n (%)
same,"Dizziness, Grade ≥3","All, N = 29",0 n (%)
same,"Electrocardiogram QT prolonged, Grade All","All, N = 29",3 (10.3) n (%)
same,"Electrocardiogram QT prolonged, Grade ≥3","All, N = 29",0 n (%)
same,"Fatigue, Grade All","All, N = 29",5 (17.2) n (%)
same,"Fatigue, Grade ≥3","All, N = 29",2 (6.9) n (%)
same,"Haematuria, Grade All","All, N = 29",3 (10.3) n (%)
same,"Haematuria, Grade ≥ 3","All, N = 29",0 n (%)
same,"Hypoalbuminemia, Grade All","All, N = 29",4 (13.8) n (%)
same,"Hypoalbuminemia, Grade ≥3","All, N = 29",0 n (%)
same,"Hypokalaemia, Grade All","All, N = 29",7 (24.1) n (%)
same,"Hypokalaemia, Grade ≥3","All, N = 29",2 (6.9) n (%)
same,"Hyponatraemia, Grade All","All, N = 29",4 (13.8) n (%)
same,"Hyponatraemia, Grade ≥3","All, N = 29",0 n (%)
same,"Leucocyte count decreased, Grade All","All, N = 29",21 (72.4) n (%)
same,"Leucocyte count decreased, Grade ≥3","All, N = 29",4 (13.8) n (%)
same,"Lymphocyte count decreased, Grade All","All, N = 29",12 (41.4) n (%)
same,"Lymphocyte count decreased, Grade ≥3","All, N = 29",4 (13.8) n (%)
same,"Nausea, Grade All","All, N = 29",9 (31.0) n (%)
same,"Nausea, Grade ≥3","All, N = 29",1 (3.4) n (%)
same,"Neutrophil count decreased, Grade All","All, N = 29",20 (69.0) n (%)
same,"Neutrophil count decreased, Grade ≥3","All, N = 29",3 (10.3) n (%)
same,"Platelet count decreased, Grade All","All, N = 29",7 (24.1) n (%)
same,"Platelet count decreased, Grade ≥3","All, N = 29",0 n (%)
same,"Rash, Grade All","All, N = 29",3 (10.3) n (%)
same,"Rash, Grade ≥3","All, N = 29",0 n (%)
same,"Vomiting, Grade All","All, N = 29",12 (41.4) n (%)
same,"Vomiting, Grade ≥3","All, N = 29",0 n (%)
same,"γ-glutamyl transpeptidase increased, Grade All","All, N = 29",7 (24.1) n (%)
same,"γ-glutamyl transpeptidase increased, Grade ≥3","All, N = 29",2 (6.9) n (%)
same,grade ≥3 TRAE decreased neutrophil count,"all patients (n = 29), n = 3",10.3%
same,grade ≥3 TRAE decreased leucocyte count,"all patients (n = 29), n = 4",13.8%
same,grade ≥3 TRAE decreased lymphocyte count,"all patients (n = 29), n = 4",13.8%
same,TRAE abdominal pain,"all patients (n = 29), n = 9",31.0%
same,TRAE nausea,"all patients (n = 29), n = 9",31.0%
same,TRAE vomiting,"all patients (n = 29), n = 12",41.4%
same,TRAE anemia,"all patients (n = 29), n = 19",65.5%
same,TRAE decreased neutrophil count,"all patients (n = 29), n = 20",69.0%
same,TRAE diarrhea,"all patients (n = 29), n = 20",69.0%
same,TRAE decreased leucocyte count,"all patients (n = 29), n = 21",72.4%
same,patients with grade ≥3 TRAEs,"all patients, 15/29",51.7%
same,tolerability and safety (conclusion in words),dose range from 50 to 600 mg QD,well tolerated and safe
same,Death due to disease progression,"n = 1, 200-mg cohort, considered unrelated to SPH4336",3.4%
